Data: PubChem BioAssay (NCATS)
This is a selection; strong and weak results do not stand in their true shares. Inconclusive results are not listed. Some structures show a salt or complex split into parts, the way the source records it. The source made the active and inactive calls. The call rests on the fitted dose curve; in most records, active means well fitted curve in the direction sought with a large enough effect; inconclusive means small, poorly fitted or top-dose-only effect, or another doubt; inactive means no such curve, though single readings can be large; an effect the other way counts as inactive or inconclusive.

Chains of the proteins cited; added tags and fusions are not shown.
UniProt P04637, whole entry: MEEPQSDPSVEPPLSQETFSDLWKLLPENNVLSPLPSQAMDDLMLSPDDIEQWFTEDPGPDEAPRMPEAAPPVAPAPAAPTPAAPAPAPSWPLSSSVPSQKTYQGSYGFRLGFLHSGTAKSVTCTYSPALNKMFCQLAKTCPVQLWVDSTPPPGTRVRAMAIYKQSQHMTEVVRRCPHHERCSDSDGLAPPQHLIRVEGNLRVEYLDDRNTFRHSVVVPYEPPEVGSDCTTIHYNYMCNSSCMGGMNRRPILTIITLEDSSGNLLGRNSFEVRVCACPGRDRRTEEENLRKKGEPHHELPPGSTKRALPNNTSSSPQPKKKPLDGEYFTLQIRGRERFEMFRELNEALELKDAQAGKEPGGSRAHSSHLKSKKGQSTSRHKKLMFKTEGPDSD

How the values were obtained:
[1] = molecular target: Aldehyde dehydrogenase, mitochondrial (Homo sapiens) (UniProt P05091); assay: qHTS for Inhibitors of the Aldehyde Dehydrogenase Family (ALDH2) Primary screen (AID 2061308); conditions: ALDH2 enzyme inhibition qHTS, 1536-well; at 56 µM (top of the series) unless noted;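 further: plate controls were vehicle for no effect and reference inhibitor for full effect; nearly all actives have a fitted effect of over 55% in size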
[2] = molecular target: Retinaldehyde dehydrogenase 3 (Homo sapiens) (UniProt P47895); assay: qHTS for Inhibitors of the Aldehyde Dehydrogenase Family (ALDH1A3) Primary screen (AID 2061315);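 further: plate controls were DMSO vehicle for no effect and reference inhibitor for full effect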; conditions: S. pombe CHP2027 cells, fluorescence laser cytometry, 18 h; at 56 µM (top of the series) unless noted
[3] = molecular target: Cellular tumor antigen p53 (Homo sapiens) (UniProt P04637); assay: Primary qHTS for small molecule compounds that upregulate eGFP-tagged delta133p53alpha (in N-terminal) cells. (AID 2060322); conditions: NCI-H358 eGFP-delta133p53alpha fluorescence, 24 h; hits give high values;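 further: cells pre-induced with doxycycline then dosed without doxycycline; 0% = DMSO vehicle and 100% = reference activator; nearly all actives have a fitted effect of over 75% in size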
[4] = BET inhibitor-based combinations targeting novel dependencies in MECOM-rearranged (r) AML: SET-2 cell line (AID 2202231); conditions: SET-2 AML cells viability, CellTiter-Glo luminescence, 48 h; hits give low values; concentration not given here;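 further: plate controls were DMSO treated cells for no effect and wells without cells for full effect; nearly all actives have a fitted effect of over 35% in size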
Description: (§1) Ecotropic viral insertion site 1 (EVI1) is located on chromosome 3q26.2 as part of the MECOM (MDS and EVI1 complex) locus. Under normal hematopoiesis, EVI1 is a regulator of hematopoietic stem cell maintenance and self-renewal and EVI1 levels decrease as the cells differentiate. In approximately 5-10% of de novo acute myeloid leukemia (AML) EVI1 is aberrantly expressed, including Chromosomal inv(3)(q21;q26.2) or t(3;3)(q21;q26.2) alterations (MECOM-r) that account for about 50% of AML with EVI1 overexpression 31. AMLs with high levels of EVI1 have a poor prognosis and an overall survival time averaging between 10-14 months. EVI1 overexpression confers resistance in leukemia cells, highlighting the need to develop new targeted therapies for EVI1 overexpressing AMLs. […]
(§2) A collection of 2480 mechanistically annotated dugs (MIPE v5.0) was used to screen four 3q26.2 rearranged AML cell lines and three non-3q26.2 rearranged AML cell lines. […] Cell viability was determined by luminescence based, Cell Titer Glo assay (Promega). […] Luminescence readings were taken using a Viewlux (PerkinElmer) with a 2 s exposure time per plate. […] Quantitative drug activity data from dose-response curves was determined utilizing area Under the Curve (AUC) and Z-transformed AUC (Z-AUC, a mean-centering transformation applied to each individual cell-line screened).

[5] = BET inhibitor-based combinations targeting novel dependencies in MECOM-rearranged (r) AML: OCI-AML3 cell line (AID 2202232); conditions: CellTiter-Glo luminescence, 48 h; at 46 µM (top of the series);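 further: plate controls were DMSO vehicle wells for no effect and wells without cells for full effect; nearly all actives have a fitted effect of over 35% in size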
How it was run: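 Each compound was tested at eleven concentrations on cells seeded at 500/well. After two days' incubation, ATP-based luminescence reported viability; responses relative to DMSO and blank wells yielded AUC and cell-line-centred Z-AUC.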

[6] = BET inhibitor-based combinations targeting novel dependencies in MECOM-rearranged (r) AML: MV-4-11 cell line (AID 2202233); conditions: MV-4-11 AML viability, CellTiter-Glo luminescence, 48 h; at 46 µM (top of the series);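 further: plate controls were DMSO for no effect and blank wells for full effect; nearly all actives have a fitted effect of over 45% in size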
Description: as §1, §2

[7] = BET inhibitor-based combinations targeting novel dependencies in MECOM-rearranged (r) AML: AML-191 cell line (AID 2202236;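 further: plate controls were vehicle wells for no effect and wells without cells for full effect; nearly all actives have a fitted effect of over 35% in size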); conditions: AML-191 viability, CellTiter-Glo luminescence, 48 h; at 46 µM (top of the series)
Description: as §1, §2

Compound: CCOP(=O)(CC)Oc1ccc([N+](=O)[O-])cc1 (stereo unspecified)
- activity change, negative = inhibition [1]: inactive: 11.2%
- activity change, negative = inhibition [2]: inactive: -7.77%

Compound: O=[N+]([O-])c1cccc([N+](=O)[O-])c1
- activation [3]: inactive: -13%

Compound: OCCSCCO
- activation [3]: inactive: -10.7%

Compound: C/C1=C2/N=C(C(CC(N)=O)C2(C)CCC(=O)NCC(C)OP(=O)([O-])OC2C(CO)OC(n3cnc4cc(C)c(C)cc43)C2O)C2(C)N=C(/C(C)=C3N=C(/C=C4N=C1C(CCC(N)=O)C\4(C)C)C(CCC(N)=O)C/3(C)CC(N)=O)C(CCC(N)=O)C2(C)CC(N)=O.[C-]#N.[Co] (stereo unspecified)
- viability [4]: inactive: 94.2%
- viability (% of control) [5]: inactive: 95%
- viability, % of control [6]: inactive: 91.2%
- viability (% of control) [7]: inactive: 82.6%

Compound: C/C1=C2N=C(/C=C3N=C(/C(C)=C4\N=C(C(CC(N)=O)C4(C)CCC(=O)NCC(C)OP(=O)([O-])OC4C(CO)OC(n5cnc6cc(C)c(C)cc65)C4O)C4(C)N=C1C(CCC(N)=O)C4(C)CC(N)=O)C(CCC(N)=O)C\3(C)C)C(CCC(N)=O)C/2(C)CC(N)=O.[C-]#N.[Co] (stereo unspecified)
- activation [3]: inactive: 5.25%
- activity change, negative = inhibition [1]: inactive: -11.4% [at 28 µM]
- activity change, negative = inhibition [2]: inactive: -12.2% [at 28 µM]
